Source: US20240382677A1 (Regeneron, published 2024)

T1: recombinant cynomolgus monkey PD-1 expressed with a C-terminal myc-myc-hexahistidine tag (cynomolgus monkey)
T1 construct: also called MfPD-1-MMH; MIPD-1-MMH
T1 chain: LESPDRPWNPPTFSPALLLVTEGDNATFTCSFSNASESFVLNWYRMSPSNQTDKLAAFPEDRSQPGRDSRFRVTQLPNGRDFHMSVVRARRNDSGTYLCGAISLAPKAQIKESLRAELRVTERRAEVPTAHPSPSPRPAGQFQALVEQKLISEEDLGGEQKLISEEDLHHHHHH


Experiments:
[1] = biological target: T2, recombinant human PD-1 expressed with a C-terminal myc-myc-hexahistidine tag (hPD-1-MMH) (human); assay: SPR (Biacore), mAb captured, hPD-1-MMH injected, 25 C
T2 construct: Monomeric PD-1 reagent; also called human PD-1-MMH

[2] = biological target: T1, recombinant cynomolgus monkey PD-1 …; assay: SPR Biacore, mAb captured, 25 C

t½ [1] | t½ [2] | Binder
14 min |  | H4H9019P (antibody, human IgG4, V domains shown, Fully human antibody with a human IgG4 Fc (H4H prefix)) VH: EVQLVESGGGVVRPGGSLRLSCAASGFTFDDYGMSWVRQVPGKGLEWVSGISWNDGKTVYAESVKGRFIISRDNAKNSLYLEMNSLRAEDTALYYCARDWQYLIERYFDYWGQGTLVTVSS VL: not shown
 | 14 min | H4H9019P (antibody, human IgG4, V domains shown, fully human, human IgG4 Fc (H4H prefix); also called H4xH9019P; H4M9019P) VH: EVQLVESGGGVVRPGGSLRLSCAASGFTFDDYGMSWVRQVPGKGLEWVSGISWNDGKTVYAESVKGRFIISRDNAKNSLYLEMNSLRAEDTALYYCARDWQYLIERYFDYWGQGTLVTVSS VL: not shown
